# ALR H2O2 inh: inhibitors of human sulfhydryl oxidase ALR; AID 485317; inhibition, % (no concentration beside the values); purified ALR, DTT oxidation, H2O2 HRP-luminol luminescence; hit rate 3.8% among 290,000;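 active means mean and each replicate at 75% or more; inconclusive means only one of the two met; inactive means neither met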;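 further: stock transfer was 7.5 nL into about 7.5 µL; 0% = neutral wells and 100% = wells with inactivated enzyme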
# HDAC3 inh: inhibitors of human histone deacetylase 3; recombinant HDAC3, fluorogenic peptide/trypsin coupled, fluorescence; inhibition, % at 8.3 µM; 0.15% of 320,000 active; AID 2718; in the data active = inhibition above about 26%, passing the limit was not always enough; inconclusive = no clear call, values can overlap the other calls
# NALP1 inh: inhibitors of NALP1 inflammasome in yeast; AID 2071; inhibition, % at 10 µM; S. cerevisiae NALP1/ASC/caspase-1 growth, X-gal OD620, 72 h; 0.61% of 280,000 active; in the data active = inhibition mostly above about 24%, no sharp cut-off; inactive = mostly below about 32%
# MC4R barr agon: activates human MC4R beta-arrestin recruitment | activation, % at 8.9 µM | 0.98% of 360,000 active | P32245 | U2OS MC4R beta-arrestin complementation, luminescence; percent of melanotan II response, DMSO zero;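 active = activation above a per-plate cutoff, the mean activation of sample wells on that plate plus 3 SD, cut at about 8% in these data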
# MC4R antag cAMP: human MC4R antagonism in cAMP assay; inhibition, % at 6.5 µM; 0.48% of 360,000 active; MC4R-expressing cells, MTII-stimulated cAMP, LANCE TR-FRET; P32245;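 active = inhibition above its plate's cutoff, the mean of tested wells on that plate plus 3 SD, cut at about 29% in these data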;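 note: 0% = Melanotan II alone and 100% = Melanotan II plus saturating MCL0020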
#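 system = U2OS cells with stable human MC4R expression | also added = Melanotan II challenge after compound preincubation | dosing = one concentration, 6.5 µM nominal | incubation = compound 30 min, challenge 1 h, detection 1 h | measured by = TR-FRET with Eu-cAMP and labeled anti-cAMP, 671 nm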
# Yeast UUG start: yeast start codon fidelity modulation. S. cerevisiae UUG-firefly luciferase reporter, luminescence/redox ratio. activity score, % at 18.7 µM. 0.13% of 350,000 active;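 active = replicate mean at a twofold rise or more, about +100% in these data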;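 also: firefly luciferase made from a UUG start codon reports start codon fidelity; reporter light over untreated wells divided by growth signal over untreated wells; some hits fall short of that in this replicate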
# * = called active by the depositor; ? = inconclusive; . = no result given. Sampled rows, rich in hits. Any-hit rate of the full collection: about 4.2%.
entry | canonical_smiles | MC4R antag cAMP | HDAC3 inh | Yeast UUG start | NALP1 inh | ALR H2O2 inh | MC4R barr agon
1 | CCCC(=O)Nc1ccc2c(c1)C(=O)N(C)[C@@H]1CC[C@@H](CC(=O)Nc3ccccc3)O[C@H]1CO2 | . | . | 14.8 | . | . | .
2 | O=C(CN1CCN(S(=O)(=O)c2ccc(Cl)cc2)CC1)c1ccc(O)c(O)c1 | -3.4 | 6.2 | -10.2 | 1.6 | 98.8* | 0.9
3 | COc1ccc(S(=O)(=O)N2CCN(CC(=O)c3ccc(O)c(O)c3)CC2)cc1 | -2.9 | 4.2 | 9.0 | -15.1 | 98.9* | -1.6
4 | O=C(CN1CCN(S(=O)(=O)c2ccc(F)cc2)CC1)c1ccc(O)c(O)c1 | 11.2 | . | . | 1.8 | . | -1.2
5 | Cc1ccc(NC(=S)N/N=C2\CCCCC2C)cc1 (stereo not given) | 11.8 | 6.2 | . | 12.3 | 0.0 | -2.9
6 | CC1CCCC/C1=N\NC(=S)Nc1cccnc1 (stereo not given) | 8.9 | 4.4 | . | 5.5 | 97.7* | -2.5
7 | O=C(C[C@@H]1CC[C@H]2[C@@H](COC[C@@H](O)CN2C(=O)c2ccc(F)cc2)O1)NC1Cc2ccccc2C1 | . | . | -0.4 | . | . | .
8 | Cc1ccc(C2=CSC3=NCCN23)cc1 | -2.5 | 8.9 | -10.3 | . | 41.7 | 1.2
9 | C1=C(c2ccco2)N2CCN=C2S1 | -0.5 | -2.0 | -10.3 | -7.8 | 80.2* | -0.1
10 | Cc1ccc(S(=O)(=O)N[C@@H]2C=C[C@H](CC(=O)NCc3ccccc3F)O[C@H]2CO)cc1 | . | . | -2.9 | . | . | .
11 | COCC(=O)Nc1ccc2c(c1)OC[C@@H](C)N(Cc1cc(F)ccc1F)C[C@H](C)[C@@H](OC)CN(C)C2=O | . | . | -0.8 | . | . | .
12 | COc1ccc(NC(=O)CSc2nnc(-c3ccccn3)n2Cc2ccco2)cc1OC | 3.2 | 1.0 | -13.6 | -6.7 | 97.2* | -2.2
13 | Cc1ccc(NC(=O)CSc2nnc(-c3cnccn3)n2Cc2ccco2)cc1 | 0.3 | 5.0 | -16.4 | -0.3 | 6.7 | -1.6
14 | NC(=O)c1ccc(NC(=O)CSc2nnc(-c3cccnc3)n2Cc2ccco2)cc1 | 21.0 | 10.0 | -2.6 | 9.1 | 97.0* | -1.5
15 | O=C(CN1CCN(c2ccc(O)cc2)CC1)N1CCc2ccccc21 | -1.1 | 5.9 | -14.3 | 22.5 | 80.1* | 1.8
16 | Cc1cccc(NC(=O)Nc2ccc3c(c2)C(=O)N(C)[C@@H]2CC[C@H](CC(=O)O)O[C@H]2CO3)c1 | . | . | -3.9 | . | . | .
17 | CC(C)CCn1c(N2CCCC2)nc2c1c(=O)n(C)c(=O)n2C | 18.3 | -7.2 | -3.2 | 12.8 | 56.9 | 1.1
18 | CCCCCCn1c(N2CCCC2)nc2c1c(=O)n(C)c(=O)n2C | 2.6 | -3.9 | -3.3 | 10.1 | 97.3* | 2.0
19 | CCOCCn1c(N2CCN(c3ccc(OC)cc3)CC2)nc2c1c(=O)n(C)c(=O)n2C | -6.6 | 4.4 | -23.2 | 13.0 | 90.7* | -1.3
20 | COCCn1c(N2CCN(c3ccc(OC)cc3)CC2)nc2c1c(=O)n(C)c(=O)n2C | -4.6 | -2.6 | . | 24.7 | 42.5 | -1.1
21 | CCCn1c(=N)n(CC(=O)OCC)c2ccccc21 | 4.0 | -1.3 | -0.8 | 12.3 | -5.0 | 0.1
22 | C=CCn1c(=N)n(CC(=O)OCC)c2ccccc21 | -1.8 | 0.3 | 19.4 | 13.0 | 99.4* | 3.5
23 | CCNC(=O)C[C@H]1CC[C@@H]2[C@@H](COc3ccc(NC(=O)c4ccccc4)cc3C(=O)N2C)O1 | . | . | 2.7 | . | . | .
24 | Cn1c(CS/C(N)=N/N=C/c2ccccc2)c(Br)c(=O)n1-c1ccccc1 | 5.6 | 0.6 | . | 20.2 | 98.4* | 0.4
25 | COc1cc(C2C(C#N)=C(N)Oc3c2oc(CO)cc3=O)ccc1OC(C)C (stereo not given) | 1.2 | 0.5 | -2.9 | 16.4 | 84.9* | -1.1
26 | N#Cc1nc(-c2ccc(Cl)cc2)oc1NCc1cccc2c1OCO2 | 1.9 | -6.4 | 1.1 | 11.1 | -0.1 | 8.5*
27 | CCOc1ccc(Nc2oc(-c3ccc(Cl)cc3)nc2C#N)cc1 | -14.3 | ? | -14.8 | -5.1 | -2.7 | 8.9*
28 | O=C(COc1ccc(/C=N/NC(=O)c2cc3ccccc3o2)cc1Br)Nc1ccccc1 | 6.0 | -5.4 | 1.1 | 18.0 | . | 53.0*
29 | O=C(COc1ccccc1[N+](=O)[O-])Nc1ccc(NC(=O)c2cc3ccccc3o2)cc1 | -3.8 | -0.9 | -16.2 | 9.7 | -12.7 | 3.3
30 | CC(C)NC(=O)N(C)C[C@@H]1Oc2c(NS(C)(=O)=O)cccc2C(=O)N([C@H](C)CO)C[C@@H]1C | . | . | -15.6 | . | . | .

# Full records as entered above.
# CCOc1ccc(Nc2oc(-c3ccc(Cl)cc3)nc2C#N)cc1 reads MC4R antag cAMP = -14.3; HDAC3 inh = ?; Yeast UUG start = -14.8; NALP1 inh = -5.1; ALR H2O2 inh = -2.7; MC4R barr agon = 8.9*
# O=C(C[C@@H]1CC[C@H]2[C@@H](COC[C@@H](O)CN2C(=O)c2ccc(F)cc2)O1)NC1Cc2ccccc2C1 reads MC4R antag cAMP = .; HDAC3 inh = .; Yeast UUG start = -0.4; NALP1 inh = .; ALR H2O2 inh = .; MC4R barr agon = .
# Cc1ccc(C2=CSC3=NCCN23)cc1 reads MC4R antag cAMP = -2.5; HDAC3 inh = 8.9; Yeast UUG start = -10.3; NALP1 inh = .; ALR H2O2 inh = 41.7; MC4R barr agon = 1.2

# (cont.)
entry | canonical_smiles | MC4R antag cAMP | HDAC3 inh | Yeast UUG start | NALP1 inh | ALR H2O2 inh | MC4R barr agon
31 | Cc1ccc(CNC(=O)c2csc3c2CCCCC3)cc1 | 3.5 | 2.2 | . | 43.0* | -20.1 | 4.4
32 | O=C(N/N=C/c1ccc(O)cc1)c1csc2c1CCCC2 | -5.5 | -7.9 | -2.3 | 22.1 | 98.7* | -1.2
33 | O=C(N/N=C/c1ccc(C(F)(F)F)cc1)c1ccc(O)cc1 | -9.6 | 7.2 | -17.4 | -13.3 | . | -3.1
34 | C[C@H](CO)N1C[C@H](C)[C@@H](CN(C)CC2CC2)OCCCC[C@H](C)Oc2ccc(NS(=O)(=O)c3ccc(Cl)cc3)cc2C1=O | . | . | 13.0 | . | . | .
35 | CO[C@H]1CN(C)C(=O)c2ccc(NC(=O)C3CCCC3)cc2OC[C@H](C)N(CCC(F)(F)F)C[C@H]1C | . | . | -8.6 | . | . | .
36 | O=C(CSc1nnc(-c2cccnc2)n1Cc1ccco1)c1ccccc1 | 9.6 | 1.1 | . | 17.0 | 74.1 | 1.7
37 | O=C(CSc1nnc(-c2ccc(O)cc2)n1Cc1ccco1)c1cccs1 | -2.8 | 1.9 | -12.3 | 13.4 | 99.4* | -0.7
38 | O=C(CSc1nnc(-c2ccc(O)cc2)n1Cc1ccco1)c1ccccc1 | 12.5 | -5.2 | 3.0 | 8.6 | 94.0* | -3.5
39 | O=C(CSc1nnc(-c2ccncc2)n1Cc1ccco1)Nc1cccc(O)c1 | 10.0 | -4.3 | -14.9 | -2.1 | 2.7 | -0.4
40 | O=C(CC(SCCO)c1ccc2c(c1)OCO2)c1cccs1 (stereo not given) | 14.4 | ? | -12.2 | 1.7 | 34.0 | -1.9
41 | O=C(CC(SCc1ccco1)c1ccc(O)cc1)c1cccs1 (stereo not given) | -2.4 | 9.4 | -17.8 | 26.6 | 95.6* | -0.7
42 | C=CCN1Cc2ccccc2C[C@@]2(COC(c3ccc(OCCCO)cc3)=N2)C1=O | . | . | 3.0 | . | . | .
43 | C[C@@H]1CN([C@H](C)CO)C(=O)c2cc(NC(=O)CCC(F)(F)F)ccc2O[C@@H](C)CCCCO[C@H]1CN(C)C(=O)c1ccccc1 | . | . | 12.8 | . | . | .
44 | Cc1noc(C)c1NC(=O)Nc1ccc2c(c1)C(=O)N([C@@H](C)CO)C[C@H](C)[C@@H](CN(C)S(=O)(=O)c1ccccc1)OCCCC[C@@H](C)O2 | . | . | 6.4 | . | . | .
45 | CCCC(=O)n1nc(-c2ccc(Cl)cc2)nc1SC | -3.8 | 32.0* | -16.6 | -5.5 | 16.9 | 0.7
46 | C[C@H](CO)N1C[C@H](C)[C@@H](CN(C)S(=O)(=O)c2cccs2)OCCCC[C@H](C)Oc2ccc(NC(=O)Nc3ccc4c(c3)OCO4)cc2C1=O | . | . | -14.4 | . | . | .
47 | CC(NC(=O)C12CC3CC(CC(C3)C1)C2)C(=O)N/N=C/C1=C(N2CCOCC2)C(=C\c2ccccc2)/CC1 (stereo not given) | 27.8 | -4.3 | -14.7 | 39.2 | -0.8 | -0.5
